Binding of CDR-mutated scFvs to a peptide of the spike HR2 region

From the AlphaSeq antibody data of Engelhart et al. 2022 (doi:10.1038/s41597-022-01779-4), copy in the FLAb collection.

Antigen: PDVDLGDISGINAS, a 14-residue peptide of the SARS-CoV-2 spike HR2 region.

Parent: Ab-95, a human scFv built as VH, a 15-residue (Gly4Ser)3 linker, VL. Only the CDRs of the light chain vary.
VH: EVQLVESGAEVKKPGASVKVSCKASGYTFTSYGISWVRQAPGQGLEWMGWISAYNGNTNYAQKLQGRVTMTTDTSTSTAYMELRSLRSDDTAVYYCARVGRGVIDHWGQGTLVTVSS
VL: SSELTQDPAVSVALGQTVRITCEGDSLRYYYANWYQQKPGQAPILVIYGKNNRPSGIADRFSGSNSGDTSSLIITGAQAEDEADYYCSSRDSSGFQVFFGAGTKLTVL

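The starting antibody came from a phage panning campaign against this peptide. In library AAYL52, one, two or three CDR residues were substituted; doubles and triples were drawn at random. The scFvs were displayed on barcoded MATa yeast, the peptide on MATalpha yeast. Binding brings cells together so that they mate, and sequencing counts the barcode pairs among the diploids. A regression on co-assayed BCL2-family reference pairs converts the normalised counts of each replicate to an apparent Kd. The assay was run in three technical replicates.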

Each variant is given by its three light chain CDRs, as the data file delimits them; those of the parent are EGDSLRYYYAN, GKNNRPS, SSRDSSGFQVF.
All variants listed here change D91 of the VL, counted from its first residue.
Values are apparent Kd, the geometric mean of the replicates that gave a signal; lower means stronger binding.
"no signal" means that the variant was in the library but no mating with the target was seen in any replicate; the authors take this as a sign of poor binding, and no number exists.
Empty control strains, which show no peptide, gave a signal in 28% of pairings with library AAYL52; the median was 8.2 µM and 95% of these signals were weaker than 800 nM. No background was subtracted.
For reference, the parent read 200 nM as the reference entry and 180 nM as a member of this library.

Variant EGDSLRRYYAN | GKNNRNS | SSRMSSGFQVF showed no signal (0 of 3 replicates). Variant RGDSLRYYYAN | GKNNIPS | SSRWSSGFQVF gave 220 nM (3 of 3 replicates). With EGDSLGYYYAN | GKNNRPS | SSRLSSGFQVR the result was 330 nM (3 of 3 replicates). Variant EMDSLRYYYAN | GKNNRPS | SSRGSSCFQVF gave 16 µM (1 of 3 replicates). Variant EGDSHRYYYAN | GKNNRPS | SSDYSSGFQVF gave 25 nM (3 of 3 replicates).

With FGDSLRYYYAL | GKNNRPS | SSRRSSGFQVF the result was 6.2 µM (2 of 3 replicates). For EGDSLRYYYDN | GKNNRPS | SSRASSGFQCF, the assay gave 4.7 µM (1 of 3 replicates). Variant EGDSLRYYYAN | GKNNDPS | YSRTSSGFQVF gave 17 µM (1 of 3 replicates). For EYDSLRYYYAN | GKNNRPS | SSRWSSGFQVQ, the assay gave no signal (0 of 3 replicates). For EGDSLRYYYAN | GKNNRPS | SSRLSSGFQVF, the assay gave 5.3 µM (3 of 3 replicates).

With EGDSLRYYYAN | GKNNRPS | SSRAPSGFLVF the result was 440 nM (3 of 3 replicates). For EGDSLRYYYAN | CKNNRPS | SSRRSSGNQVF, the assay gave 27 µM (2 of 3 replicates). Variant EGDSLRYYYKN | GKNNRPS | SSPESSGFQVF gave no signal (0 of 3 replicates). For EGDSLPYYYAN | GKNNRPS | SSRQSSTFQVF, the assay gave 1.2 µM (2 of 3 replicates). With EGDSLRYYYAN | GKNNRPS | SSRTRSGFQVF the result was 430 nM (3 of 3 replicates).

For EGDSLRYYYAQ | GKNNRPW | SSRTSSGFQVF, the assay gave 6.3 µM (2 of 3 replicates). Variant EGDSLRYYYAN | GKNNRPS | SSRSFSGFQVI showed 260 nM (3 of 3 replicates). With EGTSLRYYYAN | GKNNMPS | SSRKSSGFQVF the result was 4.5 µM (3 of 3 replicates). Variant EGDSLRYYYAN | GKNNRTS | SERPSSGFQVF showed no signal (0 of 3 replicates). With EGDSLRQYYAN | GKNNRPS | SSRSSSGFQVN the result was 1.5 µM (3 of 3 replicates).

With EGDSLRYYYAN | GKNNRPS | SSRWSSGVQVF the result was 360 nM (3 of 3 replicates). With EGDSLRYYYAN | GKNNYPS | SSRESSGFQVF the result was 4.1 µM (3 of 3 replicates). With GGDSLRYYYAN | HKNNRPS | SSRFSSGFQVF the result was 2.0 µM (1 of 3 replicates). Variant EGDSLRYYYAN | GKNNRLS | SSRFSSGFQVK gave 1.3 µM (3 of 3 replicates). With EGDSLYYYSAN | GKNNRPS | SSRLSSGFQVF the result was 84 nM (3 of 3 replicates).

Variant EGDSLRYYYAN | GKNNRPS | SSRMSSNFQVF showed 110 nM (3 of 3 replicates). For EGDSLKYYYAN | GKNNRPS | SSRYSSGFQVF, the assay gave 3.9 µM (1 of 3 replicates). For EGDSLRYYYAN | GKNNRPS | SSIHCSGFQVF, the assay gave no signal (0 of 3 replicates). For EGDFLRYYYAN | GKNWRPS | SSRRSSGFQVF, the assay gave no signal (0 of 3 replicates). Variant EGDSLRYYYAN | GKNNRPS | SSRHSSGFILF showed 200 nM (3 of 3 replicates).

With YGDSKRYYYAN | GKNNRPS | SSRLSSGFQVF the result was 38 nM (3 of 3 replicates). Variant EGDSLRYYYRN | GKNWRPS | SSRISSGFQVF gave 12 µM (2 of 3 replicates). Variant EGDSLRYYYAN | GKNNRPF | SSRQSSKFQVF showed 8.5 µM (2 of 3 replicates).

For reference, 3 entries of the list once more:

{"CDR-L1": "EGDSLYYYSAN", "CDR-L2": "GKNNRPS", "CDR-L3": "SSRLSSGFQVF", "Kd (apparent)": "84 nM", "seen in": "3 of 3"}
{"CDR-L1": "EGDSLKYYYAN", "CDR-L2": "GKNNRPS", "CDR-L3": "SSRYSSGFQVF", "Kd (apparent)": "3.9 µM", "seen in": "1 of 3"}
{"CDR-L1": "YGDSKRYYYAN", "CDR-L2": "GKNNRPS", "CDR-L3": "SSRLSSGFQVF", "Kd (apparent)": "38 nM", "seen in": "3 of 3"}